Reference: BindingDB's records for 25062506

Sequences of proteins named here, by UniProt entry; tags and fusion partners are left off. A change or cut given only in a name is not applied to a line headed by its entry.
UniProt P41145: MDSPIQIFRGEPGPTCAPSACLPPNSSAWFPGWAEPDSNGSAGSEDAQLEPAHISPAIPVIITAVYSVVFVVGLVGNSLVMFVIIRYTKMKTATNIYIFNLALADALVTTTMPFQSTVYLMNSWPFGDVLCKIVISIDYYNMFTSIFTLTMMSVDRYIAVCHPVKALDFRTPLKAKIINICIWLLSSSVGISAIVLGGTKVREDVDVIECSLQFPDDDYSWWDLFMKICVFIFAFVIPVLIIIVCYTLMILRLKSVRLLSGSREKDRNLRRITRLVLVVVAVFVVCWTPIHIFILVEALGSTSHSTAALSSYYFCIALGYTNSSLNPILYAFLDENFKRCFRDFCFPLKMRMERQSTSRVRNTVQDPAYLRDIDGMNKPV

Target: Kappa-type opioid receptor (Homo sapiens, UniProt P41145)

CN(C(=O)Cc1ccccc1)[C@H]1C[C@@]2(CCCO2)CC[C@@H]1N1CCCC1
EC50: 12 nM
